Test results published in patent US4701521A, “Method of effecting cellular uptake of molecules” (The Trustees of Boston University, priority 1979, dated 1987).

Tested on: L929 mouse fibroblast cells
Assay: Cellular uptake of ^125 I-HSA and its conjugates by L929 monolayers
Assay type: cell-based

Substance	Uptake in 60 min. (Example 5, 50 μg/ml) [μg/mg cell protein]	Uptake In 60 Min. (Example 3, Experiment 1, 50 μg/ml ^125 I-HSA free or conjugated, 37° C., serum-free) [μg/mg cell protein]	Uptake In 60 Min. (Example 3, Experiment 1, + 10 μg/ml free PLL (MW 6700)) [μg/mg cell protein]	Uptake In 60 Min. (Example 3, Experiment 2, 50 μg/ml, 37° C., serum-free) [μg/mg cell protein]	Uptake In 60 Min. (Example 3, Experiment 2, + non-labeled HSA-PLL (50 μg/ml)) [μg/mg cell protein]	Uptake in 60 min. (Example 4, unconjugated HSA) [μg/mg cell protein]	Enhancement (multiple of control) (Example 12, 50 μg/ml) [×]	Uptake, 60-1 (net uptake) (Example 12, 50 μg/ml) [CPM/mg cell protein]	Uptake, 1 min. (Example 12, 50 μg/ml) [CPM/mg cell protein]	Uptake, 60 min. (Example 12, 50 μg/ml) [CPM/mg cell protein]
^125 I-HSA-PLL-CARB.: HSA-PLL conjugate treated with potassium cyanate to carbamylate the amino groups of PLL	0.51									
human serum albumin [HSA]	0.44	0.41	0.41	0.60	0.77	0.6	1	226.7	164.9	391.6
